# Test results: the kinase profiling compilation of Christmann-Franck et al. (2016)
# Sequences of proteins named here, by UniProt entry; tags and fusion partners are left off. A change or cut given only in a name is not applied to a line headed by its entry.
# UniProt Q96PY6: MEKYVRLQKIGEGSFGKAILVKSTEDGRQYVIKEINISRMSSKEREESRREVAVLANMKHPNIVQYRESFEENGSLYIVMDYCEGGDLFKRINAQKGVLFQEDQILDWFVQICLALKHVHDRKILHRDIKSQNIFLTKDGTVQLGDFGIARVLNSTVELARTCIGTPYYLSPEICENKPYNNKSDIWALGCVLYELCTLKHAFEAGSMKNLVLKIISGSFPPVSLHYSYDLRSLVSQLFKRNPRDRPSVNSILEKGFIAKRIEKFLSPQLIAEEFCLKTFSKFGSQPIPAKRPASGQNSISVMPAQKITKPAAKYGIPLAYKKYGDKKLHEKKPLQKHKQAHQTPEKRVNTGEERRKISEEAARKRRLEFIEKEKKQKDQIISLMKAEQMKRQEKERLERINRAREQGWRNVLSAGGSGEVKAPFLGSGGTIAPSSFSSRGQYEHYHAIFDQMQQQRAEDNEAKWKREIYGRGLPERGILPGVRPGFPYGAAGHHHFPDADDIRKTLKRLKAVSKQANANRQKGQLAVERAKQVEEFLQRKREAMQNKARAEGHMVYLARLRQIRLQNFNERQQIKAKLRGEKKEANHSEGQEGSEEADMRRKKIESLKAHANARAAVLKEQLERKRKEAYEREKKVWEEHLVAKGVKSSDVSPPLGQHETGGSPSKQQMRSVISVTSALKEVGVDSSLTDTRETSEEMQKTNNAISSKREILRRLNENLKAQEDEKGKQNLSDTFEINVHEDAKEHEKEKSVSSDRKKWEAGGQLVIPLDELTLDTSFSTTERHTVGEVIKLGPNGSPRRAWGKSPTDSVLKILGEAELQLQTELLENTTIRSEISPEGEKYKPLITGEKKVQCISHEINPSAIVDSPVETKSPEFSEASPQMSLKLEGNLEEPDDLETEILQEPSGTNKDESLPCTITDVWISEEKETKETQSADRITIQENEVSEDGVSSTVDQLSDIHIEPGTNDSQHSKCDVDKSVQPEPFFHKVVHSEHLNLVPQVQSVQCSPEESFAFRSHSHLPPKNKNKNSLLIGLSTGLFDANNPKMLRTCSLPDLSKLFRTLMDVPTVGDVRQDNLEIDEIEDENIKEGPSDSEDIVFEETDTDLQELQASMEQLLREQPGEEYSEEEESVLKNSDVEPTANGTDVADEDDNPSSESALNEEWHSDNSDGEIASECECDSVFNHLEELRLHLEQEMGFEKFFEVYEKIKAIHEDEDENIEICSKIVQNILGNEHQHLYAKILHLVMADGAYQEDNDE
# UniProt P11309, whole entry, looked up: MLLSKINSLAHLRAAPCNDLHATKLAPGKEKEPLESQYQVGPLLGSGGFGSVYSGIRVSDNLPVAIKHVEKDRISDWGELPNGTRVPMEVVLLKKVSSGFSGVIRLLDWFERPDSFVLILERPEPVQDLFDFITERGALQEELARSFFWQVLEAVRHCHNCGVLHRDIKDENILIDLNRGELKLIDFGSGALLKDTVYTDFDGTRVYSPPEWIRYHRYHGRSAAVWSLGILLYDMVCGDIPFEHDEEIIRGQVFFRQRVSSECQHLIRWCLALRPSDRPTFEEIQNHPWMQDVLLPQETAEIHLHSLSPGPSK
# UniProt O14965: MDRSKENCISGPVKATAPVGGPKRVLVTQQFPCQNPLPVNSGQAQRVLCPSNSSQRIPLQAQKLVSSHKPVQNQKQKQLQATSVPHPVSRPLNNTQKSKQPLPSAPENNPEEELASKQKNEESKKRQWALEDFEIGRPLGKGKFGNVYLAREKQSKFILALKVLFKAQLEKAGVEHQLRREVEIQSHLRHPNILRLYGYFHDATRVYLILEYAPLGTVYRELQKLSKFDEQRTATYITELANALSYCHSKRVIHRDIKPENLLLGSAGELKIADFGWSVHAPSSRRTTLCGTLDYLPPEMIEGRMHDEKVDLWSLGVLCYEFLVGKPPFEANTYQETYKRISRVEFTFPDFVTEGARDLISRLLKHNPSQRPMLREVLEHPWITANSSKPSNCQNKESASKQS
# UniProt P45983: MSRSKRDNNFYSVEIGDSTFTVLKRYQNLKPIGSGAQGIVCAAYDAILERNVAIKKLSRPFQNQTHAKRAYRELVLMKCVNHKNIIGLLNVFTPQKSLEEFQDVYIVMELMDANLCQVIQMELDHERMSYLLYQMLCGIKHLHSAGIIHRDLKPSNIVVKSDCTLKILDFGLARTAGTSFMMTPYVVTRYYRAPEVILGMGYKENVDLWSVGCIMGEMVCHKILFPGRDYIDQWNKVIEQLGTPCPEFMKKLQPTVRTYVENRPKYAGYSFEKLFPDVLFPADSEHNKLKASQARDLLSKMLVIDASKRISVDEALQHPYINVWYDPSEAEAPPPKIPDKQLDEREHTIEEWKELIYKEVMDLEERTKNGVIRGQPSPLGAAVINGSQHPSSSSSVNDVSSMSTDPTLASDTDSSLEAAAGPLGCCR
# UniProt P53779: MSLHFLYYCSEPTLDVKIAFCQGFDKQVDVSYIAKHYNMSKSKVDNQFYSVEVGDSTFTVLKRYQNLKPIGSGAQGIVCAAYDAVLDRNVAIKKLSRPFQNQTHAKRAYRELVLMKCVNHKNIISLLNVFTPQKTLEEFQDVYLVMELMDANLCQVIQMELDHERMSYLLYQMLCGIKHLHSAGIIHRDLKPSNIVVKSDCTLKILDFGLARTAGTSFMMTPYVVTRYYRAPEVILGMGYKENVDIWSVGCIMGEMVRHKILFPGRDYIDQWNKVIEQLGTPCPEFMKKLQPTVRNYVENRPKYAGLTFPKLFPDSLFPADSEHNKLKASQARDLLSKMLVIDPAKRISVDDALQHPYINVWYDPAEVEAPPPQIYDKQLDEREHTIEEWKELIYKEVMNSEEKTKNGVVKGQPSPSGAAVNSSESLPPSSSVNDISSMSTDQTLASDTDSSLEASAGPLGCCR
# UniProt Q86Z02: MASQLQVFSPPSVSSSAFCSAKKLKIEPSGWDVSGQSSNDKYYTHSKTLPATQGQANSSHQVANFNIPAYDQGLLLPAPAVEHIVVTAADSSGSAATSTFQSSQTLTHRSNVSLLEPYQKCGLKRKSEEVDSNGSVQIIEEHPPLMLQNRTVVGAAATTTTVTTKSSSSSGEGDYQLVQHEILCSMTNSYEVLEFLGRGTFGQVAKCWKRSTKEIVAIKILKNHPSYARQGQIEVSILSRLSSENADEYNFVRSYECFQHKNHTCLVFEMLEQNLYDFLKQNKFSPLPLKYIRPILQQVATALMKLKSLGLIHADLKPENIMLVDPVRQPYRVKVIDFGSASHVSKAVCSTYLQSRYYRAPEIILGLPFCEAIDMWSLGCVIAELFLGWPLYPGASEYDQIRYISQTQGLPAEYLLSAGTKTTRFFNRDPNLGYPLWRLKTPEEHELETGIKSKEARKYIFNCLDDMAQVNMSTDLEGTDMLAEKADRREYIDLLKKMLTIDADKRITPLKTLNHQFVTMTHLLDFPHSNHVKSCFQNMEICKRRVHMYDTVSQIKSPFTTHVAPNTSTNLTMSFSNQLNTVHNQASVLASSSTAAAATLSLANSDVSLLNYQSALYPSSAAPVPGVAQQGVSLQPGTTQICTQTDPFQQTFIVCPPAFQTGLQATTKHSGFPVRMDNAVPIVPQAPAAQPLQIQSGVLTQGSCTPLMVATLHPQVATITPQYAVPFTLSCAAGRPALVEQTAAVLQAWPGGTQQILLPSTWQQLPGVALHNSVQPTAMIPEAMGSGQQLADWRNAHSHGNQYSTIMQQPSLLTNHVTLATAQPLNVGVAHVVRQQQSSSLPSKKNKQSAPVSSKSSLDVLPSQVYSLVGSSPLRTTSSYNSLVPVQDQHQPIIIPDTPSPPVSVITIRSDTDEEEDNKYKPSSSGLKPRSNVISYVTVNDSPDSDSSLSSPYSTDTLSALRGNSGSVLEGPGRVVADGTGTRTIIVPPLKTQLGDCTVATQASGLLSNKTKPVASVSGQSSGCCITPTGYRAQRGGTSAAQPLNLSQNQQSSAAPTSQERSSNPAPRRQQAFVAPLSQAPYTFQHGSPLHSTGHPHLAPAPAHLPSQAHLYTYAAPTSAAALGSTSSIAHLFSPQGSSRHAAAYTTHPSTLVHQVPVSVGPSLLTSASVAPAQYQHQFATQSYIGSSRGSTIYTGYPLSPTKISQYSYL
# UniProt Q13557, whole entry, looked up: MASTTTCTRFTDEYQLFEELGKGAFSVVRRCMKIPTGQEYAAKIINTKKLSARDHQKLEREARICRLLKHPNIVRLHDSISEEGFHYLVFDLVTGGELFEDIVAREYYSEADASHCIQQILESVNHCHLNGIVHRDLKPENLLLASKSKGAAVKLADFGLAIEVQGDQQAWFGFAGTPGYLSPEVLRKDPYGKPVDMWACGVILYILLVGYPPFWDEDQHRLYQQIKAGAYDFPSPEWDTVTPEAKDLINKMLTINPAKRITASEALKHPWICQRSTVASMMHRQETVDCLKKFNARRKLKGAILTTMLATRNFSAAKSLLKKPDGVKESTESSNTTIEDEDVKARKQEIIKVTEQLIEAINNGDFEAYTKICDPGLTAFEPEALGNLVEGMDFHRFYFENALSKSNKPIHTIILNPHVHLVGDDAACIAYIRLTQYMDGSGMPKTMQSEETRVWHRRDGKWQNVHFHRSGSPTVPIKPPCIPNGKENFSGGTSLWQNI
# UniProt P10721, whole entry, looked up: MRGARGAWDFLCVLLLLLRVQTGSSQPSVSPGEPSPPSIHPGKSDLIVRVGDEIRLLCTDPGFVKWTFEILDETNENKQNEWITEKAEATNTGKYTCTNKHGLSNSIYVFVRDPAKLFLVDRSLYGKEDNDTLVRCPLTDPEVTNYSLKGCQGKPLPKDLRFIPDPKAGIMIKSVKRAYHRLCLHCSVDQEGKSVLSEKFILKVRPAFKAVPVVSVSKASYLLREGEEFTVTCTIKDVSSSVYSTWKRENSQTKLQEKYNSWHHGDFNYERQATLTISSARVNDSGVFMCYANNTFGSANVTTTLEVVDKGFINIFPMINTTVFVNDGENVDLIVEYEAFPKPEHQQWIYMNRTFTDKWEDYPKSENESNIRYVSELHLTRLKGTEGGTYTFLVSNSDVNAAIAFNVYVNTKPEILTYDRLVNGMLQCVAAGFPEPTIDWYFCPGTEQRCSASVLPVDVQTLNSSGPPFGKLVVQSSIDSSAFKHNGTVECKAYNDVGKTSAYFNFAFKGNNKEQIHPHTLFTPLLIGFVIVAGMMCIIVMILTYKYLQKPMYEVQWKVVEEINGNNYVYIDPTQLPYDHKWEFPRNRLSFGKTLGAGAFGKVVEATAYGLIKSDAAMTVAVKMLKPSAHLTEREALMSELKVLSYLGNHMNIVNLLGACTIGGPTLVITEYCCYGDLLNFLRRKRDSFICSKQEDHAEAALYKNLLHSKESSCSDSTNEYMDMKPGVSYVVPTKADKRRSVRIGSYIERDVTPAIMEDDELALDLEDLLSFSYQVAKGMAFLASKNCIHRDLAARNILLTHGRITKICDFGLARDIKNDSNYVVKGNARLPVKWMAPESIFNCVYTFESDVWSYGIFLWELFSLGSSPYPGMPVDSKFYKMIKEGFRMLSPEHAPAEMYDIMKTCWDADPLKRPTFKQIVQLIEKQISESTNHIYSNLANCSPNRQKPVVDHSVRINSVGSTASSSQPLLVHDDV
# UniProt Q16816: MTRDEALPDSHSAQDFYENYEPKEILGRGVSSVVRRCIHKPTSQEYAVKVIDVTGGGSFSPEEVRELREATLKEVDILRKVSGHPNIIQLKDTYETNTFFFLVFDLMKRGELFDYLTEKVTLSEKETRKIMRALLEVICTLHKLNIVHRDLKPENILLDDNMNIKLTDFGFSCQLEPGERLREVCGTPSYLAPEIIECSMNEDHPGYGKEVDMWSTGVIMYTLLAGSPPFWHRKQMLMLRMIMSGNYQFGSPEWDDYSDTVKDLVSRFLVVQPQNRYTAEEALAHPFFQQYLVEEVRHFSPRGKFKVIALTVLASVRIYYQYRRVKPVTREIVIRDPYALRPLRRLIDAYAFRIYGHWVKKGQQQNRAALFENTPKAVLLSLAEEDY
# UniProt Q08881: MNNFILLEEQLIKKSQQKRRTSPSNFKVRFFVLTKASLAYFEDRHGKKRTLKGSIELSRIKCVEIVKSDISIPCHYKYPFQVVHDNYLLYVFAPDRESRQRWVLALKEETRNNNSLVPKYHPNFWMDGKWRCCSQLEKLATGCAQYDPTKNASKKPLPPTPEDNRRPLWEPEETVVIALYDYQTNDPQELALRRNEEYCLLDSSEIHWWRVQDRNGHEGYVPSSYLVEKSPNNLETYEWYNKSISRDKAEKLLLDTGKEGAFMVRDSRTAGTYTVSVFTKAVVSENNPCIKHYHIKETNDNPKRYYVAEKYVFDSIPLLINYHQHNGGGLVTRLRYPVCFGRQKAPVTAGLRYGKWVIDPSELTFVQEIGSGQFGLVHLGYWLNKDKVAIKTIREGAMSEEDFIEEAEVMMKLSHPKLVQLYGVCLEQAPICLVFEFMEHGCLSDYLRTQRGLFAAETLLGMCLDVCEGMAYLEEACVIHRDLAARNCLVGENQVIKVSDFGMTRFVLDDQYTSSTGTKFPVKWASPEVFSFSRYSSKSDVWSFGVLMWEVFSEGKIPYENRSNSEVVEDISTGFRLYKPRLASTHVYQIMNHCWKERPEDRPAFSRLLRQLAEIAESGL
# Legend:
# Assay in all cases: radiometric filter-binding kinase assay, Kinase HotSpot
# Conditions in all cases: compound 0.5 µM; ATP 10 µM
# PRKG1 (human) = PRKG1 (human) (UniProt Q13976)
# MAPKAPK3 (human) = MAPKAPK3 (human) (UniProt Q16644)
# MAPK12 (human) = MAPK12 (human) (UniProt P53778)
# MAPK9 (human) = MAPK9 (human) (UniProt P45984)
# MARK3 (human) = MARK3 (human) (UniProt P27448)
# ULK1 (human) = ULK1 (human) (UniProt O75385)
# NEK1 (human) = NEK1 (human) (UniProt Q96PY6)
# MAP4K5 (human) = MAP4K5 (human) (UniProt Q9Y4K4)
# PIM1 (human) = PIM1 (human) (UniProt P11309)
# NTRK1 (human) = NTRK1 (human) (UniProt P04629)
# AURKA (human) = AURKA (human) (UniProt O14965)
# PAK2 (human) = PAK2 (human) (UniProt Q13177)
# MAPK8 (human) = MAPK8 (human) (UniProt P45983)
# NEK4 (human) = NEK4 (human) (UniProt P51957)
# MAP2K1 (human) = MAP2K1 (human) (UniProt Q02750)
# MAPK10 (human) = MAPK10 (human) (UniProt P53779)
# HIPK1 (human) = HIPK1 (human) (UniProt Q86Z02)
# ACVRL1 (human) = ACVRL1 (human) (UniProt P37023)
# CAMK1G (human) = CAMK1G (human) (UniProt Q96NX5)
# EPHA5 (human) = EPHA5 (human) (UniProt P54756)
# TAOK3 (human) = TAOK3 (human) (UniProt Q9H2K8)
# MAPK1 (human) = MAPK1 (human) (UniProt P28482)
# ADRBK2 (human) = ADRBK2 (human) (UniProt P35626)
# CAMK2D (human) = CAMK2D (human) (UniProt Q13557)
# TSSK2 (human) = TSSK2 (human) (UniProt Q96PF2)
# KIT (human) = KIT (human) (UniProt P10721)
# MELK (human) = MELK (human) (UniProt Q14680)
# IRAK4 (human) = IRAK4 (human) (UniProt Q9NWZ3)
# ERBB4 (human) = ERBB4 (human) (UniProt Q15303)
# PBK (human) = PBK (human) (UniProt Q96KB5)
# AXL (human) = AXL (human) (UniProt P30530)
# GSK3A (human) = GSK3A (human) (UniProt P49840)
# PHKG1 (human) = PHKG1 (human) (UniProt Q16816)
# MINK1 (human) = MINK1 (human) (UniProt Q8N4C8)
# EPHB1 (human) = EPHB1 (human) (UniProt P54762)
# SRPK3 (human) = SRPK3 (human) (UniProt Q9UPE1)
# GRK5 (human) = GRK5 (human) (UniProt P34947)
# ITK (human) = ITK (human) (UniProt Q08881)
# PIM3 (human) = PIM3 (human) (UniProt Q86V86)
# MLTK (human) = MLTK (human) (UniProt Q9NYL2)
# RPS6KB2 (human) = RPS6KB2 (human) (UniProt Q9UBS0)
# NTRK3 (human) = NTRK3 (human) (UniProt Q16288)
structure (smiles),measurement,setting,value
COc1cc(OC)c(/C=C2\C(=O)Nc3ccccc32)c(OC)c1,residual activity,PRKG1 (human),91.3% and 96.4%
same,residual activity,MAPKAPK3 (human),99.5%
same,residual activity,MAPK12 (human),91.1%
same,residual activity,MAPK9 (human),104%
same,residual activity,MARK3 (human),105%
same,residual activity,ULK1 (human),91.4%
same,residual activity,NEK1 (human),102%
same,residual activity,MAP4K5 (human),104%
same,residual activity,PIM1 (human),95.1%
same,residual activity,NTRK1 (human),93.2%
same,residual activity,AURKA (human),102%
same,residual activity,PAK2 (human),98.8%
same,residual activity,MAPK8 (human),99.8%
same,residual activity,NEK4 (human),93.1%
same,residual activity,MAP2K1 (human),102%
same,residual activity,MAPK10 (human),88.4%
same,residual activity,HIPK1 (human),112%
same,residual activity,ACVRL1 (human),101%
same,residual activity,CAMK1G (human),103%
same,residual activity,EPHA5 (human),113%
same,residual activity,TAOK3 (human),98.1%
same,residual activity,MAPK1 (human),81%
same,residual activity,ADRBK2 (human),103%
same,residual activity,CAMK2D (human),95.7%
same,residual activity,TSSK2 (human),99.8%
same,residual activity,KIT (human),101%
same,residual activity,MELK (human),84.2%
same,residual activity,IRAK4 (human),125%
same,residual activity,ERBB4 (human),101%
same,residual activity,PBK (human),110%
same,residual activity,AXL (human),90.6%
same,residual activity,GSK3A (human),144%
same,residual activity,PHKG1 (human),98.4%
same,residual activity,MINK1 (human),76.8%
same,residual activity,EPHB1 (human),102%
same,residual activity,SRPK3 (human),92.9%
same,residual activity,GRK5 (human),107%
same,residual activity,ITK (human),99.7%
same,residual activity,PIM3 (human),98.6%
same,residual activity,MLTK (human),93.7%
same,residual activity,RPS6KB2 (human),99.3%
same,residual activity,NTRK3 (human),108%

# “And” between values parts separate entries of the source, which are not always exact repeats. Equal entries are not always repeated.
